Earlier results as cited in patent US6444726B1, “Biocidal compositions” (Clariant Finance (BVI) Limited, priority 1995, dated 2002).

Conditions: 25 ° C.

For Silver Iodide, the Solubility is given as 2.6 ng/mL.
